Data reported in paper PMC12866986 (European journal of medicinal chemistry, 2026).

The chains behind the UniProt entries cited, without tags or fusion partners.
UniProt Q05397, whole entry: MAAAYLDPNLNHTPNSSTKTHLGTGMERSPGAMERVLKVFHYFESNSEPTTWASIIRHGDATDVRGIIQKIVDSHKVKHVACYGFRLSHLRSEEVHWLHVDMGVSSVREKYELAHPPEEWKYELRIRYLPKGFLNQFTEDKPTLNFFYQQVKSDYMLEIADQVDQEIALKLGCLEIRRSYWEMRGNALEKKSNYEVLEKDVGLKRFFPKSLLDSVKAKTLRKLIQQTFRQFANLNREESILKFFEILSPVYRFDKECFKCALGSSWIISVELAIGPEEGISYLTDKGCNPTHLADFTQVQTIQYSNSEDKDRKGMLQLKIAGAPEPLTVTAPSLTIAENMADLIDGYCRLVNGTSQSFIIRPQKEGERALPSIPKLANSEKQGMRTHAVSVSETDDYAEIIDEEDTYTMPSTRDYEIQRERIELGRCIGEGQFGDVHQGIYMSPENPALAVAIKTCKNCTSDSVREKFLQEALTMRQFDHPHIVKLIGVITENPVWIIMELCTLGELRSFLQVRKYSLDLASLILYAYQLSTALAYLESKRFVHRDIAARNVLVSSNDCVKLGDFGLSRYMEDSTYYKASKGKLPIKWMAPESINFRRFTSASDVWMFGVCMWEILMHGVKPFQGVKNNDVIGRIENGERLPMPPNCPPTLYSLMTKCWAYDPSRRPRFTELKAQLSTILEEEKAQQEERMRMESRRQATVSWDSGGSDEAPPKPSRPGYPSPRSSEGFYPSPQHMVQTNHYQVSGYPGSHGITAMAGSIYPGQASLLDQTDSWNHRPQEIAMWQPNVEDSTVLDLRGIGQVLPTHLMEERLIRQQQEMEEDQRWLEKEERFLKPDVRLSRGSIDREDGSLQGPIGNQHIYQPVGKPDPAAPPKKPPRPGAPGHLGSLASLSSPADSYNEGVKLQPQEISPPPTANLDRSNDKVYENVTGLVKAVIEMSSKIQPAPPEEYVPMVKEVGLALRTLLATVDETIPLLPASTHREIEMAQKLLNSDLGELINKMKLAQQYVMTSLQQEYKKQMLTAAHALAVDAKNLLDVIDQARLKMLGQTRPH

Experiments:
FAK [1] = target: T1, FAK (Homo sapiens, UniProt Q05397); conditions: 1 h, relative to vehicle control, n = 8 measurements
FAK [2] = target: T1, FAK; conditions: at 100 pM; cited from earlier work

| SMILES | FAK-Tyr-397/FAK fold change, ± SEM (FAK [1]; 100 nM) | FAK-Tyr-397/FAK fold change, ± SEM (FAK [1]; 10 nM) | FAK activation in Caco-2 cells (FAK [2]) |
| --- | --- | --- | --- |
| CC(=O)O.CN(C)C(CNC(=O)Nc1cc(C(F)(F)F)ccc1N1CCOCC1)c1ccncc1 (stereo not drawn) [Compound 5aAcetate, 1-(2-(Dimethylamino)-2-(pyridin-4-yl)ethyl)-3-(2-morpholino-5-(trifluoromethyl)phenyl)urea acetate salt] | 1.18±0.05 fold change |  |  |
| CN(C)C(CNC(=O)Nc1cc(C(F)(F)F)ccc1N1CCOCC1)c1ccncc1.Cl (stereo not drawn) [Compound 5aHCl, 1-(2-(dimethylamino)-2-(pyridin-4-yl)ethyl)-3-(2-morpholino-5-(trifluoromethyl)phenyl)urea hydrochloric salt] | 1.25±0.08 fold change and 1.25±0.08^a; 1.25±0.08^b fold change | 1.25 fold change and 1.25±0.08^a; 1.25±0.08^b fold change |  |
| CN(C)C(CNC(=O)Nc1cc(C(F)(F)F)ccc1N1CCOCC1)c1ccncc1.O=P(O)(O)O (stereo not drawn) [Compound 5aPhosphate, 1-(2-(Dimethylamino)-2-(pyridin-4-yl)ethyl)-3-(2-morpholino-5-(trifluoromethyl)phenyl)urea phosphate salt] | 0.96±0.07 fold change |  |  |
| CN(C)C(CNC(=O)Nc1cc(C(F)(F)F)ccc1N1CCOCC1)c1ccncc1 (stereo not drawn) [Compound 5a, 1-(2-(dimethylamino)-2-(pyridin-4-yl)ethyl)-3-(2-morpholino-5-(trifluoromethyl)phenyl)urea] | 0.82±0.06 fold change |  | activates FAK |

Several values for one entry are separate records, joined by “and”; a condition that tells them apart may be missing. Identical values can stand only once. Like-named read-outs stand apart in the source and are kept apart here.
